Results from patent US6930203B2, “Gelling agents or thickeners” (Applied NanoSystems B.V., priority 2001, dated 2005).

Test: Solvent scope of N,N′-dialkylaldaramides (1%) or N,N′-dialkylpentaramides (1%): gelation/solubility behaviour in solvents
Assay type: physicochemical
Parameters: key: g = gelation; s = soluble; p = precipitates; c = crystallizes; ns = not soluble; v = viscous; g* = unstable gel, precipitates; cg = crystalline gel
Conditions: 1% gelling agent
Excerpt: It will be understood that the use of the present gelling agents or thickeners to prepare a gel or to thicken a composition is also encompassed by the invention. As is well known, gelling behavior of compounds or compositions is highly unpredictable. […] Preferably, the gelling phenomenon is thermo reversible.
Preferred examples include aromatic and nonaromatic hydrocarbons, alcohols, ethers, esters, aldehydes, alkanoic acids, epoxides, amines, halogenated hydrocarbons, silicon oils, vegetable oils, phosphoric esters, sulfoxides, water and mixtures thereof. In order to obtain a gel, the gelling agent or thickener is preferably mixed with the composition to be transformed to a gel in an amount of between 0.01 and 50 wt. %, based on the weight of the composition. In a preferred embodiment, the mixture of the gelling agent or thickener and the composition is heated to allow for an even better gel formation or thickening. Typically, the heating will involve raising the temperature of the mixture to about 30-175° C. until a clear solution is obtained. In an alternative embodiment, the gelling agent is first dissolved in a polar or apolar solvent and then added to or sprayed into a composition or solvent to be converted into a gel.
Solvent scope of N,N′-dialkylaldaramides (1%) or N,N′-dialkylpentaramides (1%) 1-24 refers to the compounds prepared in Examples 1-23)

## dicyclohexyl D-mannaramide [Example 6]
1,2-dichloroethane
  Gelation/solubility behaviour in 1,2-dichloroethane: p
Cyclohexane
  Gelation/solubility behaviour in Cyclohexane: ns
Toluene
  Gelation/solubility behaviour in Toluene: ns
n-butylacetate
  Gelation/solubility behaviour in n-butylacetate: ns
